{"source": "patent US20080214606A1", "about": "“Methods for the Identification and Use of Compounds Suitable for the Treatment of Drug Resistant Cancer Cells” (The Government of the United States of America as …, priority 2004, published 2008)", "key": {"ABCB1": {"target": "ABCB1 (Homo sapiens, UniProt P08183)", "assay": "Correlation of ABCB1 expression with drug sensitivity across the NCI-60", "details": "Pearson correlation of ABCB1 expression with sensitivity of the 60 cell lines; 1429 compounds; inverse, p < 0.0001", "experimental": "Expression levels are measured by real-time quantitative RT-PCR using the LightCycler RNA Amplification SYBR Green kit and a LightCycler machine (Roche Biochemicals, Indianapolis, Ind.). Specific oligonucleotide probes are designed for each of the ABC transporters using DNAStar Primer Select (DNASTAR Inc.), and they may be synthesized at Lofstrand Laboratories (Gaithersburg, Md.). When possible, the amplicons are designed to encompass exon-intron boundaries to avoid amplification of genomic DNA. Since the Syber Green assay detects accumulation of double stranded DNA, primers are selected (from a battery consisting of about 200 primers) that amplified a single product of the correct size. […]\nDuring PCR amplification, fluorescence emission is measured and recorded in real time by the LightCycler. Crossing point values are calculated, using the LightCycler software package, by the Fit Points analysis method, with baseline fluorescence set at 1. The SyberGreen assay measures accumulation of double-stranded products, and the appearance of primer dimers limits quantitation at high cycle numbers. […] The raw results are expressed as number of cycles to reach the crossing point. If the desired product is not detected, the corresponding value is adjusted to crossing points indicating no expression. To assess the contribution of experimental artifacts, selected cell lines are assessed in replicate. […]"}, "MDR1": {"target": "MDR1 (Homo sapiens, UniProt P08183)", "details": "tested in various laboratories; cited from earlier work"}}, "data": [{"substance": "Bouvardin [NSC 259968]", "values": [{"measurement": "Correlation", "setting": "ABCB1", "result": "−0.7570"}, {"measurement": "Interaction with MDR1", "setting": "MDR1", "result": "interact with MDR1"}]}]}
